Test results as given in patent US20060205772A1, “Amide derivatives and their use as inhibitors of 11-beta-hydroxysteroid dehydrogenase type I” (priority 2003, published 2006).

Chains of the proteins cited; added tags and fusions are not shown.
UniProt P16232, whole entry: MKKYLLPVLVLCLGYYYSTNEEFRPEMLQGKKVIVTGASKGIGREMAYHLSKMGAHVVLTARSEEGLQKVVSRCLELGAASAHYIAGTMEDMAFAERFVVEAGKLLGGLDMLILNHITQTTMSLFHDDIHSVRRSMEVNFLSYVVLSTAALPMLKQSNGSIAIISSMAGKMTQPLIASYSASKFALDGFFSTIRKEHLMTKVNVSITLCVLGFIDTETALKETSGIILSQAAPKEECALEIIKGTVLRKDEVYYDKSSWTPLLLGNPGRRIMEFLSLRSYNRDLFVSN
UniProt P80365, whole entry: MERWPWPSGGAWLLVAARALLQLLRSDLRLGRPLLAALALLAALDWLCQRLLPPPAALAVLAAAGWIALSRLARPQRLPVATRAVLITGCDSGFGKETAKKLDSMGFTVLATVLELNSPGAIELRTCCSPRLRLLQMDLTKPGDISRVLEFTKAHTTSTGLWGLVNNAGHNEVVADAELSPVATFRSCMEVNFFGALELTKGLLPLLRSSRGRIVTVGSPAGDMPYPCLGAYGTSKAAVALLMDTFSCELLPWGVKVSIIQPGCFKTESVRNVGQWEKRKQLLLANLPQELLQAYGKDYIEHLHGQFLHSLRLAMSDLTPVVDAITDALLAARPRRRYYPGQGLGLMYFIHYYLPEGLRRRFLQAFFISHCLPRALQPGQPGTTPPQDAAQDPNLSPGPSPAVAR
UniProt P28845, whole entry: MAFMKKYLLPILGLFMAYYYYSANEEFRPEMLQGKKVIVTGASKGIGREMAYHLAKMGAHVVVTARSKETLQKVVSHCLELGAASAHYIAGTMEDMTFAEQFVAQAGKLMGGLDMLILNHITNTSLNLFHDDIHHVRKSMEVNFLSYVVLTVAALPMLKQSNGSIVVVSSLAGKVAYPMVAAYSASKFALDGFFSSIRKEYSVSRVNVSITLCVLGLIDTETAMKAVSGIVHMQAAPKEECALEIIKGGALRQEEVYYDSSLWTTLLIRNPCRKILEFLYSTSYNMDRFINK

Columns and labels:
cellular 11β-HSD1 = cellular 11β-HSD1 (Rattus norvegicus, UniProt P16232); test: inhibition of cellular 11β-HSD1 activity in primary rat hepatocytes; conditions: 2 h incubation
Description: The inhibition of cellular 11β-HSD1 activity in primary rat hepatocytes is determined as follows:
Male Sprague-Dawley rats weighing 180-200 g are anesthetized with sodium pentobarbital (65 mg/kg). The liver is perfused in situ with calcium-free Earl's Balanced Salt Solution (EBSS) followed by EBSS containing 100-150 U/mL of collagenase, 1.8 mM CaCl2 and 10 mM HEPES, pH 7.4. The perfused liver is removed and aseptically placed in warm William's Medium E containing 10% BCS. After decapsulation, the organ is transferred to fresh medium and gently shaken to facilitate tissue dissociation and cell release. Hepatocytes are separated from nonparenchymal and dead cells by repeated low speed centrifugation. Cell viability is determined by trypan blue exclusion. […]
Enzyme activity is measured in the medium of primary cultures of rat hepatocytes 48 h after plating the cells. […] The dissolved residues are quantitatively transferred to thin layer plates and developed in chloroform-methanol (90:10). The TLC plates are scanned on a Bioscan imaging detector and the fractional conversion of 11-dehydrocorticosterone to corticosterone is calculated. […] Enzyme activity is expressed as pmoles of product formed per mg protein per hour.

human 11β-HSD2 = human 11β-HSD2 (Homo sapiens, UniProt P80365); test: in vitro inhibition of human 11β-HSD2 (SW-620 cell lysates, [3H]cortisol to [3H]cortisone)
Description: The in vitro inhibition of human 11β-HSD2 is determined as follows:
The SW-620 human colon carcinoma cell line is obtained from the American Type Culture Collection (ATCC). Cells are plated at a density of 8-10×10^4 cells/cm^2 in DMEM/F12 containing 5% BCS, 100 U/mL penicillin, 100 μg/mL streptomycin and […] amphotericin B. Cultures are grown to 80-90% confluence in a humidified, atmosphere of 5% CO2 at 37° C. The medium is changed to serum-free, phenol red-free DMEM/F12 at 24 h before harvesting the cells.
After 24 h in serum-free medium, cultured SW-620 cells are rinsed and scraped in Kreb's-Ringer buffer, pH 7.4, containing 1 mM EDTA, 2 μg/mL aprotinin, 10 μM leupeptin and 1 μM pepstatin. […]
Dehydrogenase activity is quantified by measuring the conversion of [^3H]cortisol to [^3H]cortisone using lysates of SW-620 cells as the enzyme source. […] The dissolved residues are quantitatively transferred to thin layer plates and developed in chloroform-methanol (90:10). […] The TLC plates are scanned on a Bioscan radioimaging detector (Bioscan, Washington, D.C.), and the fractional conversion of cortisol to cortisone is calculated. Enzyme activity is expressed as pmoles of product formed per mg protein per hour. […]

[1] = system: corticosterone production in adrenalectomized (ADX) mice; test: inhibition of corticosterone production in adrenalectomized (ADX) mice; conditions: ADX CD1 mice, orally 25 mg/kg each at 2 and 4 h before sacrifice; liver corticosterone
Description: Inhibition of corticosterone production in adrenalectomized (ADX) mice is determined as follows:
Bilateral adrenalectomy is performed in male mice of the CD1 strain (6 to 8 weeks of age, 25-30 g body weight) through a lumbar laparotomy. After 10 days the animals are fasted for 24 h. Compounds are administered orally at 25 mg/kg each at 2 and 4 h before sacrifice. A second group of animals receives carbenoxolone at the same dose, and a third group receives the vehicle (cornstarch). Homogenized liver samples are used to measure corticosterone concentration which is determined by radioimmunoassay and is expressed as pg of corticosterone per mg of liver protein.

[2] = molecular target: human recombinant 11β-HSD1 (Homo sapiens, UniProt P28845); test: in vitro inhibition of human recombinant 11β-HSD1 (Pichia pastoris microsomes, [3H]cortisone to [3H]cortisol); conditions: read-out: 11β-HSD1 IC50; recombinant human 11β-HSD1 microsomes, 500 nM cortisone mixture, NADPH, 90 min at 37° C.
Description: The in vitro inhibition of human recombinant 11β-HSD1 is determined as follows:
Recombinant human 11β-HSD1 is expressed in yeast Pichia pastoris. Cultures are grown at 30° C. for 3 days in the presence of methanol to induce enzyme expression. The microsomal fraction overexpressing 11β-HSD1 is prepared from the cell homogenate and used as the enzyme source for primary screening. A test compound at the desired concentration is preincubated for 10 min at RT with 3 μg of the microsomal protein in 50 mM sodium phosphate, pH 7.5, in a total volume of 80 μL. The enzyme reaction is initiated by adding 20 μL of a mixture containing 5 mM NADPH, 500 nM cortisone, and 80,000 dpm of [^3H]cortisone in the same buffer and is terminated by ethyl acetate after incubation for 90 min at 37° C. The production of [^3H]cortisol is quantitated upon separation from [^3H]cortisone by a C18 column on HPLC equipped with a radioactivity detector. Glycerrhetinic acid, a known inhibitor of 11β-HSD1, is used as a standard.

cellular 11β-HSD1 % inhibition @ 1 μM (cellular 11β-HSD1): 67%
11β-HSD2 % inhibition @ 10 μM (human 11β-HSD2): 30%
IC50 [2]: 560 nM
SMILES: COc1cc(NC(=O)c2ccccc2)ccc1C(=O)N1CC[C@H]2CCCC[C@H]2C1 (relative stereo)
ADX mice % change in corticosterone [1]: −73%
